# Laboratory results reported in ChEMBL document CHEMBL1147608, “SAR development of polycyclic guanine derivatives targeted to the discovery of a selective PDE5 inhibitor for treatment of erectile dysfunction” (Bioorg Med Chem Lett, 2004).
# Target: cGMP-specific 3',5'-cyclic phosphodiesterase (Homo sapiens, UniProt O76074)
row,SMILES,IC50 [nM]
1,CCN1C(=O)c2c(ncn2Cc2ccc(OC)c(Cl)c2)N2C1=N[C@@H]1CCC[C@@H]12,8.3
2,CCN1C(=O)c2[nH]c(Cc3ccccc3)nc2N2C[C@@H](Cc3ccccc3)N=C12,4.5
